# Binding of CDR-mutated scFvs to a peptide of the spike HR2 region

Binding partner: SARS-CoV-2 spike HR2 peptide, sequence PDVDLGDISGINAS.

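Phage display of a naive human antibody library on the peptide gave the parent. This is the validation round: designs drawn from the data on random variants, tested in the same kind of assay. Their group label is 14L_En_Gen (En: ensemble of fine-tuned language models; Gen: genetic algorithm). The scFvs were displayed on barcoded MATa yeast, the peptide on MATalpha yeast. Mating (16 h, 30 °C) was followed by selection of diploids and sequencing of their barcodes. The ratio of observed to expected reads was calibrated, replicate by replicate, on BCL2-family standards whose Kd was known from biolayer interferometry. Mating was done six times.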

Each scFv is VH, a (GGGGS)3 linker, VL, as in the parent Ab-14, and differs from it in the CDRs of the light chain only.
VH: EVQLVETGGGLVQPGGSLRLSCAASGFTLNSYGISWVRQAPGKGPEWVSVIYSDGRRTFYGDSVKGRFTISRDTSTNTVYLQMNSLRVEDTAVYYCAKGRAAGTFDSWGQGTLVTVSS
VL: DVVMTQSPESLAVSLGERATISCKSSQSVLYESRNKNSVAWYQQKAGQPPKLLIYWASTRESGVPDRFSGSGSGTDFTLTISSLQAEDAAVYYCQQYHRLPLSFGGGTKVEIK

The parent's light chain CDRs are KSSQSVLYESRNKNSVA, WASTRES, QQYHRLPLS; each variant's own CDRs replace them letter for letter. Affinities are written as log10 Kd with Kd in nM; a lower number is a better binder. An entry "n.d." has no value in the source: the pair was not observed among the diploids in that replicate. This suggests poor binding but is not conclusive. Values of this round are not directly comparable with the first-round values of the same sequences.

| # | CDR-L1 | CDR-L2 | CDR-L3 | log10 Kd (nM) by replicate | empty controls |
|---|---|---|---|---|---|
| 1 | KVSYFGEQLTKTGSNVA | DNETRED | QQYFRLPLS | 0.01 -0.10 -0.12 -0.16 0.11 0.36 | 0 of 18 |
| 2 | TIGQTLMIGTRNRSNVA | EVSQRLN | QQYDRLPLL | 2.67 2.28 1.82 2.46 1.79 2.44 | 0 of 18 |
| 3 | KIGMTLNTLMHQINNVA | DLVEREN | QQYFRLPLS | 0.25 0.09 0.15 0.12 0.41 0.20 | 1 of 18 (2.25) |
| 4 | TISSIMNHLTRNSNNVA | NMDMRED | QQYDRLPLS | 0.33 0.21 0.58 0.62 0.30 0.69 | 0 of 18 |
| 5 | KISQMVRVGSTHNNSIA | EEATRAK | QQYHRLPLA | n.d. 2.39 2.69 n.d. 3.55 2.83 | 1 of 18 (2.74) |
| 6 | IVSQLMLWGWHAKNSIA | EAAMRLN | QQYDRLPLF | n.d. n.d. n.d. n.d. n.d. n.d. | 0 of 18 |
| 7 | KIGATLNTLMHTKNNVA | DLVTREN | QQYHRLPLS | 0.33 0.15 -0.09 -0.02 0.21 0.22 | 0 of 18 |
| 8 | KLSQITGHSLMSKNNVA | EMETREN | QQYDRLPLS | 1.90 1.07 0.83 0.94 0.88 1.07 | 0 of 18 |
| 9 | IVSQLMMWGLHASNSIA | EAVTRYN | QQYDRLPLF | n.d. n.d. 2.52 2.49 2.15 2.57 | 1 of 18 (1.99) |
| 10 | HMSMLTLGGLKNRNSVA | QMTTREN | QQYDRLPLA | n.d. n.d. n.d. n.d. n.d. n.d. | 0 of 18 |
| 11 | TLYGLSNSSSINKNSVA | EMTTRED | QQYDRLPLI | 2.51 2.67 2.42 4.53 2.82 4.34 | 3 of 18 (3.02) |
| 12 | MISQLYNMGQFAINSVA | QASERSN | QQYDRLPLI | n.d. 3.08 3.26 3.07 2.72 2.64 | 1 of 18 (2.74) |
| 13 | KVSSFMRGLMMRTDSIA | DNETRND | QQYDRLPLS | 1.61 n.d. n.d. n.d. 2.15 2.17 | 0 of 18 |
| 14 | KLTMITGTEKVHGNNVA | EMETREN | QQYNRLPLA | 1.20 0.97 0.95 0.97 1.31 1.15 | 2 of 18 (3.32) |
| 15 | MMSQVWGMGQRHRNNVA | QTSTREP | QQYDRLPLV | 1.07 1.20 0.94 1.46 0.83 0.88 | 1 of 18 (2.36) |
| 16 | TISQMTSLFSMSINNVA | EVSTREQ | QQYDRLPLM | 0.96 0.87 0.77 0.35 0.06 0.60 | 0 of 18 |
| 17 | NIYQAMHTLSQMKDNVA | DVNERGS | QQYYRLPLS | 0.14 -0.08 0.07 -0.20 -0.15 0.11 | 0 of 18 |
| 18 | TISQITGLFTQNINNVA | EVSTRLN | QQYDRLPLA | 0.98 1.57 1.02 1.29 1.26 1.11 | 0 of 18 |
| 19 | KISQMVRVGSTHGNSIA | EEATRAK | QQYHRLPLS | 1.01 0.68 0.58 0.71 0.46 0.87 | 1 of 18 (2.55) |
| 20 | HMSMLTMMGMRHRNSVA | QMTVREN | QQYDRLPLM | 3.14 1.76 1.14 0.83 1.29 1.57 | 0 of 18 |
| 21 | KIGMTLNQLMHQKNNVA | DLVMREN | QQYFRLPLS | 0.69 0.38 0.28 0.41 0.27 0.82 | 2 of 18 (1.83) |
| 22 | TIGGTLMWGVMNRSNVA | EVSQRLN | QQYDRLPLM | 0.65 1.01 1.59 0.89 0.95 1.43 | 1 of 18 (1.84) |
| 23 | TISDVMGHMSKHTNNVA | DMDTRGQ | QQYNRLPLS | 0.38 0.15 0.12 -0.14 0.12 0.40 | 0 of 18 |
| 24 | KISMLHNQTFEQSNNVA | EMVTREK | QQYNRLPLS | n.d. 1.59 1.01 1.31 0.86 1.19 | 0 of 18 |
| 25 | KLSGLMQSSKFAKDNVA | ENNTRED | QQYDRLPLS | n.d. n.d. n.d. 2.19 n.d. 2.41 | 1 of 18 (1.49) |
| 26 | KISQMVRVGATHSNSIA | EEQTRAK | QQYHRLPLA | 1.14 1.13 1.10 0.88 1.00 0.97 | 1 of 18 (3.34) |
| 27 | MLSQMWGTGMKASNSVA | QASVRFN | QQYHRLPLI | n.d. 1.14 n.d. n.d. 2.38 1.90 | 1 of 18 (1.90) |
| 28 | KIGATLNTLYEKANNVA | DLVEREN | QQYYRLPLS | 2.31 1.74 1.75 1.68 1.82 1.64 | 0 of 18 |
| 29 | KLSQITGHMSVSKNNVA | EMVTREN | QQYDRLPLS | n.d. 0.83 n.d. 1.47 n.d. 1.86 | 1 of 18 (0.81) |
| 30 | QISQLMNLSMHGTNNVA | QMETRVK | QQYDRLPLS | 1.44 1.04 1.24 1.00 1.29 1.44 | 2 of 18 (2.94) |
| 31 | KITMTMRFEQKNKNNIA | EVSTRSK | QQYVRLPLA | -0.03 0.04 0.54 0.39 0.35 0.44 | 0 of 18 |
| 32 | MIYGAAMELGRAANSIA | DNVTKYD | QQYERLPLS | n.d. 3.99 n.d. 3.78 2.89 n.d. | 1 of 18 (2.37) |
| 33 | QIYQAMHTLSQVKNNVA | DVNERGQ | QQYFRLPLS | 0.50 0.48 0.48 0.45 0.44 0.82 | 1 of 18 (2.01) |
| 34 | KLSMITGHMSVSKNNVA | EMETREN | QQYDRLPLS | 0.47 0.55 0.84 0.21 0.70 0.50 | 1 of 18 (3.00) |
| 35 | IVSQLMLWGAHAKNSIA | EAQTRLN | QQYDRLPLF | 1.87 1.49 1.40 1.42 n.d. n.d. | 0 of 18 |

Background: pairings of all light chain designs with three empty control strains gave a value in 4% of cases (median 2.64, 5th percentile 1.59). Values in that range, when seen in few replicates, are hard to tell from nonspecific mating. The control count says in how many pairings with the empty strains this scFv gave a signal, with their mean in brackets. In the paper, a design with two or fewer of six values counts as a poor binder. Of ten entries with the parent sequence, four were seen in most replicates (averages 0.34 to 2.37), three in one and three in none, so single entries are noisy.

From the AlphaSeq antibody data of Li et al. 2023 (doi:10.1038/s41467-023-39022-2), copy in the FLAb collection.